Test results published in PubChem BioAssay AID1276 (Columbia University Molecular Screening Center, 2008).
Only a part is listed here, and it is no random draw. Some of these compounds have results that are not shown, active ones among them. Activity calls are given as the source filed them.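 How the source made its calls: active means activation above a set limit, based on mean plus 3 SD of controls (cut at about 140% in these data); inconclusive means one replicate above the limit, the other below; inactive means the rest.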

Experiment: activators of APP 5'UTR luciferase reporter, primary screen, SH-SY5Y cells (AID 1276)
Conditions: SH-SY5Y APP 5'UTR luciferase reporter, luminescence; at 2 µM; stronger effect = higher value; zero percent = DMSO vehicle wells

| SMILES | activation |
| --- | --- |
| O=C(NCC1(N2CCCCC2)CCCCC1)c1cc([N+](=O)[O-])ccc1Cl | inactive: 13.2% |
| CC(C)N1C(=O)CC2(CCN(CCOC(=O)C(O)(c3ccccc3)c3ccccc3)CC2)C1=O | inactive: 3.31% |
| Cc1ccccc1C(=O)NCC1(N2CCCCC2)CCCCC1 | inactive: 2.86% |
| CN(C)C1CCCC1OC(=O)C(O)(c1ccccc1)c1ccccc1 (centres undefined) | inactive: -15.8% |
| CCN1CCCC(OC(=O)C2(O)c3ccccc3C=Cc3ccccc32)C1 (centres undefined) | inactive: -4.84% |
| C=CCN1CCN(CCOC(=O)C(O)(c2ccccc2)c2ccccc2)CC1 | inactive: 4.68% |
| COc1cccc(C(=O)NCC2(N3CCCCC3)CCCCC2)c1 | inactive: 24.5% |
| O=C(OC1CN2CCC1CC2)C(CO)(c1ccccc1)c1ccccc1 (centres undefined) | inactive: 11.9% |
| CN(C)c1cccc(C(=O)NCC2(N(C)C)CCCCC2)c1 | inactive: 35.3% |
